The values below are quoted from earlier work in patent US20140228302A1, “COMPOUNDS, COMPOSITIONS AND METHODS FOR TREATING OR PREVENTING HYPOXIC OR ISCHEMIC INJURY” (FRED HUTCHINSON CANCER RESEARCH CENTER, priority 2010, published 2014).

For this series the following is noted: rat, in vivo, iv, 1 mg/kg; cited from earlier work.

Take sodium sulfide: the “Free sulfide in blood” value is recorded as “robust elevation”.
